# Reference: IntAct's records for PubMed 35512704
# B1: RAC-alpha serine/threonine-protein kinase (Homo sapiens), P31749 (parent)
# chain: MSDVAIVKEGWLHKRGEYIKTWRPRYFLLKNDGTFIGYKERPQDVDQREAPLNNFSVAQCQLMKTERPRPNTFIIRCLQWTTVIERTFHVETPEEREEWTTAIQTVADGLKKQEEEEMDFRSGSPSDNSGAEEMEVSLAKPKHRVTMNEFEYLKLLGKGTFGKVILVKEKATGRYYAMKILKKEVIVAKDEVAHTLTENRVLQNSRHPFLTALKYSFQTHDRLCFVMEYANGGELFFHLSRERVFSEDRARFYGAEIVSALDYLHSEKNVVYRDLKLENLMLDKDGHIKITDFGLCKEGIKDGATMKTFCGTPEYLAPEVLEDNDYGRAVDWWGLGVVMYEMMCGRLPFYNQDHEKLFELILMEEIRFPRTLGPEAKSLLSGLLKKDPKQRLGGGSEDAKEIMQHRFFAGIVWQHVYEKKLSPPFKPQVTSETDTRYFDEEFTAQMITITPPDQDDSMECVDSERRPHFPQFSYSASGTA
# partner: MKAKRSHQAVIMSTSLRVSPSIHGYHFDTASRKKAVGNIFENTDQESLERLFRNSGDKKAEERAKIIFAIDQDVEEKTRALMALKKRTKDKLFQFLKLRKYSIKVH
# B2: RAC-alpha serine/threonine-protein kinase (Homo sapiens), P31749 (parent)
# chain: B1 chain
# partner: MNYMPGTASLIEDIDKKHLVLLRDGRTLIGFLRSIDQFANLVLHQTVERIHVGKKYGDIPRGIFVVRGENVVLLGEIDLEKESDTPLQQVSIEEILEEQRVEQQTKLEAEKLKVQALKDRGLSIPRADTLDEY
# B3: RAC-alpha serine/threonine-protein kinase (Homo sapiens), P31749 (parent)
# chain: B1 chain
# partner: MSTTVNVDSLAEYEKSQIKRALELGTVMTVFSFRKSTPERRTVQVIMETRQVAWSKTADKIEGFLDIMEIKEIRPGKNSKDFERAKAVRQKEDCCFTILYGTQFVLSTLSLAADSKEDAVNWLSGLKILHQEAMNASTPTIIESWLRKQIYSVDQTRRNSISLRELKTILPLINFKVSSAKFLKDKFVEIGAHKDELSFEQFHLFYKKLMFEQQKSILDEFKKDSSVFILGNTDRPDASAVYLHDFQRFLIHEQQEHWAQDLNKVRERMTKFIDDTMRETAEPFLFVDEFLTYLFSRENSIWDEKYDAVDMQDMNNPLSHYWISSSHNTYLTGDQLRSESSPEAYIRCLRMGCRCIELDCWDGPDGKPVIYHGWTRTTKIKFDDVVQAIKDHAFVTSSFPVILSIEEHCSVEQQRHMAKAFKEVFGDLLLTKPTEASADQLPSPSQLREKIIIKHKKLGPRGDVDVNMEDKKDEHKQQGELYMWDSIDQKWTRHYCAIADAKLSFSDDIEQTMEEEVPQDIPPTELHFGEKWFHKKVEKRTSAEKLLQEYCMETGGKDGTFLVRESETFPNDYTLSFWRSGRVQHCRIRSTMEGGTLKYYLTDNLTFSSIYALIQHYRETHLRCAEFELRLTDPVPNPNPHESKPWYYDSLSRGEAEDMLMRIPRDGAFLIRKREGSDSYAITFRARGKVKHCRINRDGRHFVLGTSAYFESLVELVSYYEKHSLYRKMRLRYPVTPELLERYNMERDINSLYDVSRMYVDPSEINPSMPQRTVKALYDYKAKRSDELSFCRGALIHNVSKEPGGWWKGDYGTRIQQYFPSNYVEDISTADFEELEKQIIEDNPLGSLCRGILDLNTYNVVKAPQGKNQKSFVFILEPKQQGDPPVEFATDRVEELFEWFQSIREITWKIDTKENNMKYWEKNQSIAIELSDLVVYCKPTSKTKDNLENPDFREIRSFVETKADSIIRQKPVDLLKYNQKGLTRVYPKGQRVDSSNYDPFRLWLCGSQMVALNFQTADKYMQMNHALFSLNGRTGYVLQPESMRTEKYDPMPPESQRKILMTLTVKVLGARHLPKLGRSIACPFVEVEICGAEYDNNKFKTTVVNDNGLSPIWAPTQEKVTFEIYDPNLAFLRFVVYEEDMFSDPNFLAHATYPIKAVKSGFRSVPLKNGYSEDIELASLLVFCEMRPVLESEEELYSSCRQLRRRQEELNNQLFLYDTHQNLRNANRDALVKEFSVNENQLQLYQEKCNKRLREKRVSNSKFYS
# B4: RAC-alpha serine/threonine-protein kinase (Homo sapiens), P31749 (parent)
# chain: B1 chain
# partner: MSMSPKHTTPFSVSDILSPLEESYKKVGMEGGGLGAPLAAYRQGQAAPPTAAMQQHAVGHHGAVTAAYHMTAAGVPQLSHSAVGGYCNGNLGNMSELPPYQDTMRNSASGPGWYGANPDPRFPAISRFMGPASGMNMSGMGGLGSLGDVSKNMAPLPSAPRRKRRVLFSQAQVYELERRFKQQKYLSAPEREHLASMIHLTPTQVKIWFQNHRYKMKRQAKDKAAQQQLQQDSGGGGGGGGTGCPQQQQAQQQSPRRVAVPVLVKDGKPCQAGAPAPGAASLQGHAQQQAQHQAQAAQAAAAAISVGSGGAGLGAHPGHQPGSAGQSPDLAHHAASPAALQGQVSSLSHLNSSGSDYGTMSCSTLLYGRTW
# B5: RAC-alpha serine/threonine-protein kinase (Homo sapiens), P31749 (parent)
# chain: B1 chain
# partner: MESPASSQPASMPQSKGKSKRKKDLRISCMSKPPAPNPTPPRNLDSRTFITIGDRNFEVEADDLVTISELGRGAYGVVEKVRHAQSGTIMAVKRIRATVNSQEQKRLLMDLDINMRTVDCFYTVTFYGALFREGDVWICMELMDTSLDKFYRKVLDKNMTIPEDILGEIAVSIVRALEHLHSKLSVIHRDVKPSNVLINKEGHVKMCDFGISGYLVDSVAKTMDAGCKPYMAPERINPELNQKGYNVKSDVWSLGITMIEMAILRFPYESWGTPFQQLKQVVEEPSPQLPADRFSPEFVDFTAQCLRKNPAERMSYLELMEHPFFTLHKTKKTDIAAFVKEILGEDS
# B6: RAC-alpha serine/threonine-protein kinase (Homo sapiens), P31749 (parent)
# chain: B1 chain
# partner: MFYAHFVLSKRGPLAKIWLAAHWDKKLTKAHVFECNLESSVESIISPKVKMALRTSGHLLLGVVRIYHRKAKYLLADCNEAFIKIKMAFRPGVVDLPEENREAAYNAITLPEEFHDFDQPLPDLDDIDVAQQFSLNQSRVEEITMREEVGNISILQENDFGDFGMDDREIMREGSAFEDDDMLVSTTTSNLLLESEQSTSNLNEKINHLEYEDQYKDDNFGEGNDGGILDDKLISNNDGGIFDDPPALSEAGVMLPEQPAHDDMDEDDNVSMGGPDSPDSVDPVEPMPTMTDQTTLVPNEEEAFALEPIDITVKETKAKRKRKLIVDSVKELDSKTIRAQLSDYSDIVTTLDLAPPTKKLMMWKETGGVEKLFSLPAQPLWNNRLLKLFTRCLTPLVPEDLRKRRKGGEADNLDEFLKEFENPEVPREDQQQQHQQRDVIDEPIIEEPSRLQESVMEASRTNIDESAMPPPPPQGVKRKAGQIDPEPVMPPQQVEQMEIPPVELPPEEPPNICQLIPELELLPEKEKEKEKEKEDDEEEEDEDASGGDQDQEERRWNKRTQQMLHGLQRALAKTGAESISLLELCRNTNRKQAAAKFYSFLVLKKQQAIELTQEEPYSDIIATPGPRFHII
# Variants of: B1
# Conditions: with tcim_human TCIM
row,effect of a mutation on the interaction,Variant
1,causing an interaction,E17K

# Variants of: B2
# Conditions: with lsm1_human LSM1, O15116
row,effect of a mutation on the interaction,Variant
1,with no effect,E17K

# Variants of: B3
# Conditions: with plcg2_human PLCG2, P16885
row,effect of a mutation on the interaction,Variant
1,with no effect,E17K

# Variants of: B4
# Conditions: with nkx21_human NKX2-1, P43699
row,effect of a mutation on the interaction,Variant
1,with no effect,E17K

# Variants of: B5
# Conditions: with mp2k3_human MAP2K3, P46734
row,effect of a mutation on the interaction,Variant
1,with no effect,E17K

# Variants of: B6
# Conditions: with rad21_human RAD21, O60216
row,effect of a mutation on the interaction,Variant
1,with no effect,E17K
